# Bioassay records as filed in PubChem.
# miR-21 reporter – raises the signal of a miR-21 reporter; 340,000 tested, under 10 active; HeLa miR-21 FLuc reporter, luciferase, 48 h; Potency, µM (highest dose often 38.3 µM); active = well fitted rising curve with a large enough effect; inconclusive = small, poorly fitted or top-dose-only effect; inactive = no such curve, though single readings can be large or run the other way;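 also: miR-21 action dims this reporter so a rising signal means less miR-21 action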
#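 Compounds were titrated across several concentrations (up to approximately 40 uM) and incubated 48 hours with HeLa miR-21-FLuc reporter cells (miR-21 target sequence downstream of FLuc, endogenous miR-21). Readout was firefly luciferase luminescence after lytic detection reagent.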
# uPA surface inh – inhibitors of cell surface uPA generation; cell surface uPA generation assay, qHTS; 330,000 compounds, 0.31% hits; Potency, µM (top dose mostly 38.3 µM), hits mostly inhibitors; active = well fitted inhibition curve with a large enough effect; inconclusive = small, poorly fitted or top-dose-only effect; inactive = no such curve, though single readings can be large or run the other way; tested in mouse RAW 264.7 cells; note: nearly all actives have a fitted effect of over 55% in size
# DT40 TDP1 CPT – growth inhibition of DT40 Tdp1-/-;hTDP1 cells with camptothecin (screen for TDP1 inhibitors); chicken DT40 Tdp1-/-;hTDP1 cells + 20 nM CPT, ATP luminescence, 48 h; Potency, µM (doses to about 46.2 µM), actives largely listed as inhibitors; 420,000 compounds, 12% hits; AID 686979; note: nearly all actives have a fitted effect of over 55% in size
#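 Chicken DT40 Tdp1-/- cells stably complemented with human TDP1 were seeded at 400 cells/well in medium containing 20 nM camptothecin, exposed to pin-transferred compounds, and grown at 37 °C for at least 48 hr. Viability was read as ATP luminescence.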
# TDP1 block – TDP1 (human) enzyme inhibition. Q9NUW8. recombinant TDP1, AlphaScreen DNA substrate cleavage. Potency, µM (titrated, usually from 130 µM), actives largely listed as inhibitors. 350,000 compounds, 0.28% hits; note: nearly all actives have a fitted effect of over 40% in size
#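 Signal: AlphaScreen proximity between streptavidin donor and anti-FITC acceptor beads on intact substrate. Reaction: Tdp1 1 nM, substrate 15 nM final, 5 min RT after 15 min compound preincubation.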
# DT40 TDP1 no CPT – qHTS for Inhibitors of human tyrosyl-DNA phosphodiesterase 1 (TDP1): qHTS in cells in absence of CPT | DT40 Tdp1-/- hTDP1 cells, no CPT, ATP luminescence, 48 h | Potency, µM (doses to about 46.2 µM), most hits filed as inhibitors | 420,000 compounds, 15% hits; note: nearly all actives have a fitted effect of over 55% in size
#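 A cellular qHTS used chicken DT40 cells lacking endogenous Tdp1 but carrying stably transfected human TDP1. Compounds were applied without camptothecin, and cell growth kinetics were judged by ATP-dependent luminescence after ≥48 hr.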
# Numbers stand for hits; n = inactive; u = inconclusive; x = not tested or not shown; [ ] = dose if it differs, or a comment. An excerpt weighted towards active compounds, which were near 16% of everything screened. Unless noted, calls come from the whole dose curve; as a rule, active = well fitted curve in the direction sought with a large enough effect; inconclusive = small, poorly fitted or top-dose-only effect, or another doubt; inactive = no such curve, though single readings can be large; an effect the other way counts as inactive or inconclusive.
SMILES,miR-21 reporter,uPA surface inh,DT40 TDP1 CPT,TDP1 block,DT40 TDP1 no CPT
CN(Cc1c(F)cccc1Cl)C(=O)c1cccc(S(=O)(=O)NCc2ccccc2)c1,x,n,23µM,n,18µM
CN(Cc1c(F)cccc1Cl)C(=O)c1cccc(S(=O)(=O)N2CCN(Cc3ccccc3)CC2)c1,x,n,21µM,x,u
Cc1ccc(S(=O)(=O)NNc2ccccc2)c(C)c1,n,n,u,n,18µM
Cc1ccc(S(=O)(=O)Nc2cc(C(C(=O)OC(C)C)C(=O)C(F)(F)F)c(O)c3ccccc23)c(C)c1 (configuration not stated),n,n,u,n,u
Cc1ccc(S(=O)(=O)Nc2ccc(O)c3ccccc23)c(C)c1,n,n,3.7µM,x,5.2µM
Cc1ccc(C)c(S(=O)(=O)Nc2ccc(O)c(C(=O)O)c2)c1,n,n,n,n,n
Cc1ccc(C)c(S(=O)(=O)Nc2ccc(O)c3ccccc23)c1,n,u,13µM,x,15µM
CCn1c2ccccc2c2nnc(N3CCN(c4cccc(C)c4C)CC3)nc21,n,x,n,n,u
COc1ccc(CNc2nc(-c3ccc(OC)cc3)cc(C(F)(F)F)n2)cc1,n,x,13µM,n,5.8µM
COc1ccc(-c2cc(C(F)(F)F)nc(NCc3ccccc3)n2)cc1OC,n,x,u,n,21µM
CCCNC(=O)C/C(C)=N/NC(=O)C(=O)Nc1ccccn1,n,n,n,n,n
CCOC(=O)/C=C(\C)Sc1cc(=O)oc2ccccc12,u,n,23µM,n,21µM
CCOC(=O)/C=C(\C)Sc1cc(O)c2ccccc2c1O,u,n,0.92µM,n,1.2µM
CCOC(=O)c1[nH]c2ccccc2c1NC(=O)c1cc(OCC)c(OCC)c(OCC)c1,n,x,u,n,u
O=C(Nc1ccccc1Cl)Oc1ccc(-c2ccccc2)cc1,n,n,n,x,n
Cc1ccc2cc(CN(CCN(C)C)C(=O)Nc3ccc(Cl)cc3)c(=O)[nH]c2c1,n,x,u,n,16µM
Cc1ccc2[nH]c(=O)c(CN(CCCN(C)C)C(=O)Nc3ccc(Cl)cc3)cc2c1,n,x,7.1µM,n,6.3µM
Cc1ccc(NC(=S)N(CCCN(C)C)Cc2cc3cc4c(cc3[nH]c2=O)OCO4)c(C)c1,n,x,n,n,n
COc1cc(/C=C2\SC(=O)N(CCNC(=O)c3cnc(C)cn3)C2=O)cc(OC)c1OC,n,n,u,x,18µM
COc1ccc(C(=O)NCCN2C(=O)S/C(=C\c3cccnc3)C2=O)c(OC)c1OC,n,n,u,n,u
COc1cc(/C=C2\SC(=S)N(CCC(=O)NC3CCCC3)C2=O)cc(OC)c1OC,n,n,u,n[0.0935 µM],u
COc1cc(/C=C2\SC(=S)N(CCC(=O)N3CCN(C)CC3)C2=O)cc(OC)c1OC,n,n,u,n,15µM
COc1cc(/C=C2\SC(=S)N(CCC(=O)Nc3ccccc3)C2=O)cc(OC)c1OC,n,n,u,n,u
COc1cc(/C=C2/SC(=S)N(CCC(=O)N3CCN(C)CC3)C2=O)cc(OC)c1OC,x,x,u,x,23µM
COCCCNC(=O)C(=O)NCC1CCCN1S(=O)(=O)c1cccs1 (configuration not stated),x,n,n,n[0.505 µM],n
SMILES,miR-21 reporter,uPA surface inh,DT40 TDP1 CPT,TDP1 block,DT40 TDP1 no CPT
O=[N+]([O-])c1ccc(-c2c(-c3ccccc3)ncc3ccc(F)cc23)cc1,x,n,u,n,u
Fc1ccc2cnc(-c3ccccc3)c(-c3cc(C(F)(F)F)cc(C(F)(F)F)c3)c2c1,x,n,u,x,16µM
Fc1ccc2cnc(-c3ccccc3)c(-c3ccc(C(F)(F)F)cc3)c2c1,x,n,u,n,18µM
Fc1ccc2c(-c3cccc(C(F)(F)F)c3)c(-c3ccccc3)ncc2c1,x,n,u,n,15µM
COc1cc2cnc(-c3ccccc3)c(-c3ccc(C(F)(F)F)cc3)c2cc1OC,x,n,u,n,u
O=C(Nc1ccc(Cl)cn1)c1cccc2ccccc12,n,8.9µM,5.2µM,x,5.8µM
Cc1cccc(NC(=O)/C(C#N)=C/c2ccc(Cl)cc2)n1,n,n,n,x,n
O=C(COC(=O)/C=C/c1ccccc1)Nc1ccc(Cl)cn1,x,n,n,n,n
CSc1cccc(NC(=O)/C=C/c2ccc(Cl)cc2)c1,n,x,u,n,u
COc1cccc(NC(=O)/C=C\c2ccc(Cl)cc2)c1,x,x,30µM,n,u
Cc1cccc(NC(=O)/C=C/c2ccc(Cl)cc2)n1,n,n,u,n,18µM
O=C(/C=C/c1ccccc1)Nc1ccc(Cl)cn1,n,n,2.6µM,n,3.3µM
Cc1ccc(C(=O)NC(C)c2ccncc2)o1 (configuration not stated),n,n,n,n,n
CCOC(=O)N1CCCN(/[N+]([O-])=N/Oc2ccc([N+](=O)[O-])cc2[N+](=O)[O-])CC1,x,x,x,n,x
Cc1nnc(NC(=O)CSc2nnc(CCNC(=O)c3ccccc3F)n2C)s1,n,n,n,x,n
O=C(CC(c1ccccc1)c1ccccc1)Nc1ccc(Cl)cn1,n,n,u,n,18µM
CN(C)c1ccc([C@@H]2[C@@H]([N+](=O)[O-])[C@H]3C=Cc4ccccc4N3[C@H]2C(=O)c2ccc(Cl)cc2)cc1,n,n,6.5µM,n,7.3µM
CNC(C)C#Cc1ccc2c(=O)c3cc(C)c(C)cc3oc2c1 (configuration not stated),x,n,u,x,29µM
CCOc1ccccc1NC(=O)c1ccc(F)c(S(=O)(=O)NCc2ccc3c(c2)OCO3)c1,n,x,n,n,u
COc1cc(-c2nnc(Sc3ccc(C(F)(F)F)cc3[N+](=O)[O-])o2)cc(OC)c1OC,n,x,21µM,n,23µM
Cc1coc2c(C)c3oc(=O)c(CCC(=O)N4CCC(C(=O)NCCCC(=O)O)(c5ccccc5)CC4)c(C)c3cc12,n,n,n,n,n
COC1=C(Br)C(=O)c2nc(C)ccc2C1=O,x,x,0.65µM,x,0.58µM
COc1nc(C)ccc1-c1noc(-c2cccnc2)n1,n,n,n,x,n
COC1=C(N)C(=O)c2nc(C)ccc2C1=O,x,n,5.2µM,x,7.3µM
COc1ccc(N)c2c1C(=O)c1ccccc1C2=O,n,n,u,n,u
SMILES,miR-21 reporter,uPA surface inh,DT40 TDP1 CPT,TDP1 block,DT40 TDP1 no CPT
CCCOC(=O)Nc1nc(-c2ccc(C)cc2)c(C)s1,n,n,n,n,u
Cn1c(/C=C/c2ccc(Br)cc2)c([N+](=O)[O-])c(=O)n(C)c1=O,n,n,8.2µM,x,12µM
Cc1ccc(-n2c(SCC(=O)N(C)C3CCS(=O)(=O)C3)nc3ccccc3c2=O)cc1 (configuration not stated),n,n,n,n,n
Cc1nc2ccccn2c1C(=O)CSc1cccc(Cl)c1,n,n,u,n,u
Cc1nc2ccccn2c1C(=O)CSc1ccc(Cl)cc1Cl,n,n,u,n,18µM
CCN(CC)C(=O)c1c(C)nc2ccccn12,n,n,n,n,n
